The source of these data is US8440810B2, “Riboswitches, methods for their use, and compositions for use with riboswitches” (Yale University, priority 2002, dated 2013).

Test [1] relates to ydhL RNA from B. subtilis and the two add RNAs from C. perfringens and V. vulnificus. Description: In-line probing of the three G box RNAs that carry the C to U mutation. The settings on record: 1 μM ligand.
In test [2] the test system is 80 ydhL RNA (U to C mutation). Description: In-line probing and equilibrium dialysis of 80 ydhL U to C mutant. (Equilibrium dialysis compares concentrations on both sides of a semipermeable membrane.)
For test [3], the system named is 93 xpt RNA (C to U mutation at position 74). Put plainly: In-line probing and equilibrium dialysis of 93 xpt C to U mutant. In kind it is binding, B. subtilis.

Regarding `Nc1ncnc2nc[nH]c12` [adenine], the structural modulation result in test [1] was “exhibit structural modulation only when incubated in the presence of adenine”.

For `Nc1nc2nc[nH]c2c(=O)[nH]1` [guanine], in test [2], the “affinity poorer than that of 93 xpt” value is recorded as “at least 10 fold” and the binding specificity result is recorded as “alters binding specificity to guanine”. In addition, the “structural modulation and binding in equilibrium dialysis” value in test [3] is given as “no longer is responsive to guanine”. For the same compound, in test [1], the structural modulation entry is given as “do not respond to guanine”.
